# Assay results taken from PubChem BioAssay AID1654 (Sanford-Burnham Center for Chemical Genomics, 2009).
# Amino acid sequences for entries named in this document (tags omitted). A change or cut given only in a name is not applied to a line headed by its entry.
# UniProt P51452: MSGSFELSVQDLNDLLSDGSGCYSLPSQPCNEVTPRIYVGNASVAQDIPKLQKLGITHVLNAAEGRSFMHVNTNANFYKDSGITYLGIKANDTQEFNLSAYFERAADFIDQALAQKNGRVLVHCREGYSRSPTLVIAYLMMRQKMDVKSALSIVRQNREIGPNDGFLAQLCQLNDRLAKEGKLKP
# The list shows a part of the results, in another mix than the full data. Active and inactive are the calls of the source. Cut-off read from the data, not from the text of the source: active = inhibition above about 50%; inactive = the rest.
# Molecular target: Dual specificity protein phosphatase 3 (Homo sapiens) (UniProt P51452)
# Assay: inhibition of human DUSP3 activity – biochemical, absorbance, uHTS, primary screen (AID 1654)
# Settings: recombinant VHR phosphatase, pNPP absorbance; at 13.3 µM; active compounds read high
row,Compound,inhibition
1,CCOC(=O)NC(Sc1ccccc1)C(Cl)(Cl)Cl (stereo not given),inactive: 29.7%
2,Cc1ccc(NP(=O)(Oc2cccc(C)c2)Oc2cccc(C)c2)nc1,inactive: 33.5%
3,c1ccc(-c2nn[nH]n2)c(-c2nn[nH]n2)c1,inactive: 16.5%
4,CCNC(=S)/N=C(\N)N[N+](=O)[O-],inactive: 2%
5,O=C(NC1CCS(=O)(=O)C1)NP(=S)(Oc1ccccc1)Oc1ccccc1 (stereo not given),inactive: 1.5%
6,CCC(=O)N1C2C3N(C(=O)CC)C1C1N(C(=O)CC)C(C(N1C(=O)CC)N3C(=O)CC)N2C(=O)CC,inactive: 32.9%
7,O=C(OC1CN2CCC1CC2)c1ccccc1 (stereo not given),inactive: 26.3%
8,Cc1ccc(OP(=O)(Nc2ccccn2)Oc2ccc(C)cc2)cc1,inactive: 2.8%
9,CC(=O)NC(SC(=S)N(CC(C)C)CC(C)C)C(Cl)(Cl)Cl (stereo not given),inactive: -14.2%
10,COC(=O)c1cc2c(s1)N=C(c1ccccc1)N(C)P2(=O)N1CCOCC1 (stereo not given),inactive: 31.6%
11,CN(C)C(=O)Oc1noc2ccccc12,inactive: 34.9%
12,O=c1c2cc([N+](=O)[O-])ccc2[nH]c2c([N+](=O)[O-])cc([N+](=O)[O-])cc12,inactive: 14.7%
13,Cc1ccccc1OP(=O)(Nc1ccccn1)Oc1ccccc1C,inactive: 17.2%
14,CCOc1ccc(C2=NCC(CBr)S2)cc1 (stereo not given),inactive: 9%
15,CC(C)(C)C(=O)NC(Sc1ccccc1)C(Cl)(Cl)Cl (stereo not given),inactive: 24.3%
16,C[C@@H]1C=CCP(=O)(Oc2ccccc2)O1 (stereo not given in full),inactive: 6.5%
17,C[C@H]1OP(=O)(Oc2ccccc2)C[C@@H]2O[C@@H]21 (stereo not given in full),inactive: 14.2%
18,CC(=O)c1ccc(N2CC2c2ccncc2)cc1 (stereo not given),inactive: 3%
19,CC(=O)Nc1ccc(Oc2c([N+](=O)[O-])cc([N+](=O)[O-])cc2[N+](=O)[O-])cc1,inactive: 22.2%
20,CC(=O)Nc1ccc([As](=O)(O)O)c(O)c1,inactive: -11%
21,CC(C)C(=O)NC(Sc1ccccc1)C(Cl)(Cl)Cl (stereo not given),inactive: 46.3%
22,O=P(Nc1nccs1)(c1ccccc1)c1ccccc1,inactive: 7.2%

row,Compound,inhibition
1,c1nnnn1CCn1cnnn1,inactive: 11.9%
2,O=P(Nc1ccccn1)(c1ccc(Br)cc1)c1ccc(Br)cc1,inactive: 21.5%
3,CN(C)C1(CNC(=O)c2ccc(Cl)c(S(N)(=O)=O)c2)CCCCC1,inactive: 0.1%
4,C[C@H]1OP(=O)(Oc2ccccc2)[C@H](O)[C@H](O)[C@H]1N=[N+]=[N-] (stereo not given in full),inactive: 14.2%
5,O=P(Nc1nc2ccccc2s1)(c1ccccc1)c1ccccc1,inactive: 16.6%
6,O=[As](O)(c1ccccc1)c1ccc(O)cc1,inactive: -14.1%
7,O=[N+]([O-])c1ccc(O)c(/C=N/Nc2ccc([N+](=O)[O-])cc2[N+](=O)[O-])c1,inactive: -17.9%
8,O=[N+]([O-])c1ncn(CCn2cnc([N+](=O)[O-])n2)n1,inactive: 28.8%
9,CC(=O)NC(SC(=S)N(C)C)C(Cl)(Cl)Cl (stereo not given),inactive: -5.4%
10,O=C(OC1CN2CCC1CC2)c1cccc(Cl)c1 (stereo not given),inactive: -1%
11,Nc1ccc([As](=O)(O)c2ccc([N+](=O)[O-])cc2)cc1,inactive: 29.8%
12,C(Cc1nn[nH]n1)Cc1nn[nH]n1,inactive: 13.5%
13,O=C(Nc1cc([As](=O)(O)O)ccc1O)c1ccccc1,inactive: 36%
14,O=[N+]([O-])c1ncn(CCn2ncnc2[N+](=O)[O-])n1,inactive: 14.4%
15,CC(C)(C)C(=O)NC(Sc1ccncn1)C(Cl)(Cl)Cl (stereo not given),inactive: -3.6%
16,O=C(O)CNc1ccc([As](=O)(O)O)cc1,inactive: 20.7%
17,O=[N+]([O-])c1cccc(NC2=NCC(CBr)S2)c1 (stereo not given),inactive: 21.1%
18,COc1ccc(C2=NCC(CBr)S2)cc1 (stereo not given),inactive: 8.3%
19,CCc1nc2c(n1)c1c(non1O)c1c2no[n+]1[O-],inactive: -5.9%
20,O=[N+]([O-])c1cc([N+](=O)[O-])c(CCNc2ccccc2)c([N+](=O)[O-])c1,inactive: -5.3%
21,Cc1ccc(NP(=O)(Oc2ccccc2)Oc2ccccc2)nc1,inactive: 11.9%
22,O=[N+]([O-])c1cccc2n[nH]nc12,inactive: -2.4%

row,Compound,inhibition
1,CC(=O)N1C2C3N(C(C)=O)C1C1N(C(C)=O)C(C(N1C(C)=O)N3C(C)=O)N2C(C)=O,inactive: 20.5%
2,CCN(/C(=N/P(=O)(N1CCOCC1)N1CCOCC1)N1CCOCC1)c1ccc(OC)cc1,inactive: 4.8%
3,C[N+]1=C2C=CC=CC=C2SC12C([N+](=O)[O-])=CC([N+](=O)[O-])=C[C-]2[N+](=O)[O-] (stereo not given),inactive: 20.5%
4,Nc1ccc([As](=O)(O)c2ccc(N)cc2)cc1,inactive: 35.5%
5,CC1CCN(C(=O)Oc2c(Cl)cc(Cl)c3cccnc23)CC1,inactive: 31.1%
6,CN(C)C(=O)OCCc1n(C)cc[n+]1C,inactive: -2.7%
7,CC(C)=N/N=C(\N)N[N+](=O)[O-],inactive: -7.7%
8,Cc1ccc(N/C(=N/P(=O)(N2CCOCC2)N2CCOCC2)N2CCOCC2)cc1,inactive: 19%
9,NC(=O)c1cc([N+](=O)[O-])cc([N+](=O)[O-])c1N,inactive: 4.8%
10,Clc1ccc(Cl)c(NC2=NCC(CBr)S2)c1 (stereo not given),inactive: -6.2%
11,CN1CCCC(OC(=O)C(c2ccccc2)c2ccccc2)C1 (stereo not given),inactive: -4.6%
12,Cc1ccc(OP(=O)(Nc2nccs2)Oc2ccc(C)cc2)cc1,inactive: 21.3%
13,COc1ccccc1OP(=O)(Nc1ccc(C)cn1)Oc1ccccc1OC,inactive: 19.8%
14,Cc1c2non([O-])c-2c(C)[n+](=O)[n+]1[O-],inactive: 1.5%
15,O=C(NC(Sc1ccncn1)C(Cl)(Cl)Cl)c1ccccc1 (stereo not given),inactive: -4.8%
16,Oc1ccccc1CNc1ccccn1,inactive: 24.3%
17,CC(C)CC(=O)NC(Sc1ccc(Cl)cc1)C(Cl)(Cl)Cl (stereo not given),inactive: 31.1%
18,Nc1cc(N)c2nonc2c1[N+](=O)[O-],inactive: 16.5%
19,O=P(Nc1nc2ccc(Cl)cc2s1)(c1ccccc1)c1ccccc1,inactive: 20.1%
20,O=C(O)c1ccccc1[As](=O)(O)O,inactive: 26.9%
21,CC(=O)Nc1ccc([As](=O)(O)O)cc1,inactive: 22.8%
